Experimental findings from PubChem BioAssay AID602346 (Broad Institute, 2012) are described below.

Molecules are shown by their SMILES. This is a selection; strong and weak results do not stand in their true shares. Calls of active or inactive are those of the source. Cut-off read from the data, not from the text of the source: active = inhibition above about 50% (passing the limit was not always enough); inconclusive = no clear call, values can overlap the other calls; inactive = below about 31%.

This test is described as follows: HIV Vif self-association inhibitors, primary screen, imaging, HEK293T, single point (AID 602346). The note with it: HEK293T cells, Vif self-association by quenched fluorescence, 24 h, at 7.49 µM, active compounds read high.
Usually inhibition stands for the relative decrease from the control value, in per cent. As to `Cc1ccc(N/C(=N/P(=O)(N2CCOCC2)N2CCOCC2)N2CCOCC2)cc1`, the inhibition is inactive: 0.0115%.

Take `NC(=O)c1cc([N+](=O)[O-])cc([N+](=O)[O-])c1N`: the inhibition is inactive: -4.6%.

On to `Clc1ccc(Cl)c(NC2=NCC(CBr)S2)c1` (stereo not given), for which the inhibition is inactive: -9.53%.

For `COc1ccccc1OP(=O)(Nc1ccc(C)cn1)Oc1ccccc1OC`, the inhibition is inactive: -1.34%.

Take `Cc1ccc(OP(=O)(Nc2nccs2)Oc2ccc(C)cc2)cc1`: the inhibition was active: 53.4%.

`Oc1ccccc1CNc1ccccn1`: the inhibition is inactive: 3.88%.

Take `O=C(NC(Sc1ccncn1)C(Cl)(Cl)Cl)c1ccccc1` (stereo not given): the inhibition was inactive: -6.17%.

On to `CC(C)CC(=O)NC(Sc1ccc(Cl)cc1)C(Cl)(Cl)Cl` (stereo not given), for which the inhibition was inactive: 1.47%.

Regarding `Nc1cc(N)c2nonc2c1[N+](=O)[O-]`, the inhibition was inactive: -0.203%.

Turning to `O=[N+]([O-])C1C(O)C(O)C([N+](=O)[O-])C(O)C1O` (stereo not given), the inhibition is inactive: 0.412%.

With `CN(C)P(=O)(N(C)C)n1c(Nc2ccccc2)nnc1-c1ccccc1`, the inhibition was inactive: -11.9%.

`O=P(Nc1nc2ccc(Cl)cc2s1)(c1ccccc1)c1ccccc1`: the inhibition was inactive: -4.99%.

As to `O=C(O)c1ccccc1[As](=O)(O)O`, the inhibition was inactive: 8.24%.

Regarding `CC(=O)Nc1ccc([As](=O)(O)O)cc1`, the inhibition was inactive: 0.96%.

On to `CCCC1OP(N)(=O)OCC1CC` (stereo not given), for which the inhibition was inactive: -7.04%.

For the molecule `CCOP(=O)(Nc1ccccc1)OCC`, the inhibition is inactive: 2.62%.

For the molecule `Cc1cc(SC(NC(=O)c2ccc(F)cc2)C(Cl)(Cl)Cl)ncn1` (stereo not given), the inhibition is inactive: -1.99%.

In the case of `CN(C(=O)Cc1ccc(Cl)c(Cl)c1)[C@H]1CCCC[C@@H]1N1CCCC1`, the inhibition is inactive: 2%.

Regarding `Cc1ccc(NP(=O)(Oc2ccccc2F)Oc2ccccc2F)nc1`, the inhibition is inactive: 4%.

In the case of `Nc1cccc2ccc([As](=O)(O)O)cc12`, the inhibition was inactive: -9.13%.

`CCN(N=Nc1nonc1N)c1nonc1N`: the inhibition was inactive: -7.57%.

On to `c1ccc(-c2nn[nH]n2)c(-c2nn[nH]n2)c1`, for which the inhibition was inactive: 0.618%.

`Cc1ccc(NP(=O)(Oc2cccc(C)c2)Oc2cccc(C)c2)nc1`: the inhibition is inactive: 0.258%.

Take `O=C(NC1CCS(=O)(=O)C1)NP(=S)(Oc1ccccc1)Oc1ccccc1` (stereo not given): the inhibition was inactive: 2.85%.

For `CCNC(=S)/N=C(\N)N[N+](=O)[O-]`, the inhibition is inactive: 7.56%.

Regarding `O=P1(N(CCCl)CCCl)OCCC2CCCCN21` (stereo not given), the inhibition was inactive: -3.28%.

As to `O=C(OC1CN2CCC1CC2)c1ccccc1` (stereo not given), the inhibition was inactive: -4.9%.

`CCC(=O)N1C2C3N(C(=O)CC)C1C1N(C(=O)CC)C(C(N1C(=O)CC)N3C(=O)CC)N2C(=O)CC`: the inhibition is inactive: 7.99%.

For the molecule `COC(=O)c1cc2c(s1)N=C(c1ccccc1)N(C)P2(=O)N1CCOCC1` (stereo not given), the inhibition is inactive: 5.94%.

Consider `Cc1ccc(OP(=O)(Nc2ccccn2)Oc2ccc(C)cc2)cc1`, for which the inhibition is inactive: -5.83%.

Turning to `CC(=O)NC(SC(=S)N(CC(C)C)CC(C)C)C(Cl)(Cl)Cl` (stereo not given), the inhibition was inactive: -0.0705%.

As for `Cc1ccccc1OP(=O)(Nc1ccccn1)Oc1ccccc1C`, the inhibition was inactive: -1.45%.

Regarding `CC(NC(=O)COC(=O)C(O)(c1ccccc1)c1ccccc1)c1ccccc1` (stereo not given), the inhibition is inactive: -3.78%.

In the case of `CN(C)C(=O)Oc1noc2ccccc12`, the inhibition was inactive: 4.5%.

On to `O=c1c2cc([N+](=O)[O-])ccc2[nH]c2c([N+](=O)[O-])cc([N+](=O)[O-])cc12`, for which the inhibition was inactive: -1.16%.

With `O=P1(Nc2nc3ccc(Cl)cc3s2)COc2ccccc2O1` (stereo not given), the inhibition was inactive: 0.741%.

On to `CCOc1ccc(C2=NCC(CBr)S2)cc1` (stereo not given), for which the inhibition was inactive: -8.68%.

`CC(C)(C)C(=O)NC(Sc1ccccc1)C(Cl)(Cl)Cl` (stereo not given): the inhibition was inactive: 1.56%.

Regarding `CCc1cc(O)c([N+](=O)[O-])c(C)c1[N+](=O)[O-]`, the inhibition is inactive: 15.6%.

`Cc1ccccc1CN(C)C(=O)COC(=O)C(O)(c1ccccc1)c1ccccc1`: the inhibition is inactive: -1.49%.

Regarding `C[C@@H]1C=CCP(=O)(Oc2ccccc2)O1` (stereo not given in full), the inhibition was inactive: -2.64%.

Consider `C[C@H]1OP(=O)(Oc2ccccc2)C[C@@H]2O[C@@H]21` (stereo not given in full), for which the inhibition was inactive: -0.996%.

Turning to `N#C/C(=C\c1ccc(N(CCBr)CCBr)cc1)C(N)=O`, the inhibition was inactive: 5.82%.

As for `CC(=O)c1ccc(N2CC2c2ccncc2)cc1` (stereo not given), the inhibition was inactive: 0.448%.

In the case of `COC(=O)C1(C)COP(=O)(NCc2ccccc2)OC1` (stereo not given), the inhibition was inactive: -7.3%.

In the case of `CC(=O)Nc1ccc([As](=O)(O)O)c(O)c1`, the inhibition was inactive: -12.2%.

For `CC(=O)Nc1ccc(Oc2c([N+](=O)[O-])cc([N+](=O)[O-])cc2[N+](=O)[O-])cc1`, the inhibition is inactive: 15.3%.

In the case of `O=P(Nc1nccs1)(c1ccccc1)c1ccccc1`, the inhibition was inactive: 6.53%.

`c1nnnn1CCn1cnnn1`: the inhibition is inactive: 7.54%.

Turning to `CN(C)C1(CNC(=O)c2ccc(Cl)c(S(N)(=O)=O)c2)CCCCC1`, the inhibition is inactive: -10.9%.

As to `O=P(Nc1ccccn1)(c1ccc(Br)cc1)c1ccc(Br)cc1`, the inhibition was inactive: -16.3%.

On to `COc1ccc(N)c([N+](=O)[O-])c1[N+](=O)[O-]`, for which the inhibition was inactive: 4.93%.

For the molecule `C[C@H]1OP(=O)(Oc2ccccc2)[C@H](O)[C@H](O)[C@H]1N=[N+]=[N-]` (stereo not given in full), the inhibition was inactive: -1.44%.

For `O=[As](O)(c1ccccc1)c1ccc(O)cc1`, the inhibition is inactive: -16.7%.

For the molecule `O=[N+]([O-])c1ncn(CCn2cnc([N+](=O)[O-])n2)n1`, the inhibition is inactive: -2.29%.

`CC(=O)NC(SC(=S)N(C)C)C(Cl)(Cl)Cl` (stereo not given): the inhibition was inactive: 0.897%.

As for `O=[N+]([O-])c1ccc(O)c(/C=N/Nc2ccc([N+](=O)[O-])cc2[N+](=O)[O-])c1`, the inhibition was inactive: -19.6%.

Take `O=C(OC1CN2CCC1CC2)c1cccc(Cl)c1` (stereo not given): the inhibition was inactive: -11.5%.

Consider `Nc1ccc([As](=O)(O)c2ccc([N+](=O)[O-])cc2)cc1`, for which the inhibition is inactive: 1.29%.

For the molecule `C(Cc1nn[nH]n1)Cc1nn[nH]n1`, the inhibition was inactive: 6.29%.
